Consider 1 substance from US20160237160A1, “ANTI-TWEAKR ANTIBODIES AND USES THEREOF” (BAYER PHARMA AKTIENGESELLSCHAFT, priority 2013, published 2016).

Experiment [1] relates to Co5676 patient-derived colorectal cancer model. Nature of the experiment: Xenograft anti-tumor efficacy. It is filed as in vivo, mice. The settings on record: tumor area, TPP-2090 10 mg/kg twice weekly for 4 weeks. As to the method: (§1) After tumor growth to a size of approximately 40 mm^2 mice were randomized into control and treatment groups with a respective group size of n=8-10. Mice were treated with various doses of anti-TWEAKR antibodies diluted in PBS by intravenous injection (i.v.) into the tail vein with a twice per week schedule (q4dx3: applications twice per week, three applications in total; q4dx8: applications twice per week, eight applications in total). Combination therapy partners such as Regorafenib (10 mg/kg daily, per os) and the PI3K-inhibitor 1 (10 mg/kg, BID, 2d on, 5d off (applications twice daily on two consecutive days, followed by five days without treatment), i.v.) were diluted in their respective formulations whereas the standard of care therapies Irinotecan (5 mg/kg, 4d on, 3d off (applications once daily on four consecutive days followed by three days without treatment) i.v.) and Paclitaxel (16 mg/kg, q7dx4 (applications once per week, four applications in total), i.v.) were diluted in 0.9% NaCl. Animals injected with PBS served as the control (vehicle) group. The applied volume of the compounds was 5 ml/kg body weight per mouse.
(§2) Tumor growth was monitored 2-3 times per week by caliper measurement (length×width in mm) as well as body weight (in g). […]

The subject of experiment [2] is CXF533 patient-derived colorectal cancer model. Nature of the experiment: Xenograft anti-tumor efficacy. It is filed as in vivo, mice. The conditions noted are these: tumor weight, TPP-2090 10 mg/kg twice weekly for 4 weeks. As to the method: as §1, §2

Consider “Cetuximab: standard of care antibody, EGFR (HER1) inhibitor”, for which the “Final T/C” value in experiment [1] was determined as 0.22; in experiment [2], 1.53.
